## Binding of CDR-mutated scFvs to a peptide of the spike HR2 region

Data: MIT Lincoln Laboratory AlphaSeq set, Engelhart et al. 2022, doi:10.1038/s41597-022-01779-4, as distributed in FLAb.

Target peptide (SARS-CoV-2 spike, HR2 region): PDVDLGDISGINAS

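Phage display of a naive human antibody library on the peptide gave the parent. AAYL49 was designed without a model: most single CDR substitutions and a random sample of double and triple ones. The scFvs were displayed on barcoded MATa yeast, the peptide on MATalpha yeast. Pairs that bind mate more often; barcode pairs of the diploids are counted by sequencing. The ratio of observed to expected reads was calibrated, replicate by replicate, on BCL2-family standards whose Kd was known from biolayer interferometry. There are three technical replicates.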

Each scFv is VH, the linker GGGGSGGGGSGGGGS, VL, as in the parent Ab-14, and differs from it in the CDRs of the heavy chain only.
VH: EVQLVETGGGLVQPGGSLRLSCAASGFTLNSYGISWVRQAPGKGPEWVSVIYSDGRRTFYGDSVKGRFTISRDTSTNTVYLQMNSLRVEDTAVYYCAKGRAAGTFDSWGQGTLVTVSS
VL: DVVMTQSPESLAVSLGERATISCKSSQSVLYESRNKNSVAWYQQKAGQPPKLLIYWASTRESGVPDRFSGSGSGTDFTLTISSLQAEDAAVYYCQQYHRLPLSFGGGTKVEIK

Sequences are complete VH domains. The read-out is the apparent dissociation constant on a log10 scale (nM): the lower, the stronger. "ND" marks a missing value. The strain was present, yet no cells mated with the target were sequenced in that replicate, which points to weak or no binding. Three control strains display no target. For library AAYL49, 15% of the pairings with them gave a signal, with a median of 4.06 and one signal in twenty below 2.83, so weak values seen in few replicates may be background.

log10 Kd (nM) by replicate	VH
ND / 3.98 / 3.27	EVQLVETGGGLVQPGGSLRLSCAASGFTLNSYGITWVRQAPGKGPEWVSVIYSDGRRTAYGDSVKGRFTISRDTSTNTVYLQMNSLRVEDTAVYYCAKGRKAGTFDSWGQGTLVTVSS
ND / ND / ND	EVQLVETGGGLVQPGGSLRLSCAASGFTLNPYGISWVRQAPGKGPEWVSVIYSDGRRTFYGDCVKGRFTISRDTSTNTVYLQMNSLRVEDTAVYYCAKARAAGTFDSWGQGTLVTVSS
ND / ND / ND	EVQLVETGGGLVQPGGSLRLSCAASGFTLNSYGISWVRQAPGKGPEWVSVIYSDGRRTFYGPSVKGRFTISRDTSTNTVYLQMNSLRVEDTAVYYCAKGRYAFTFDSWGQGTLVTVSS
ND / 4.92 / 3.14	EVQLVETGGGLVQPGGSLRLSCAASGFTLGSYGISWVRQAPGKGPEWVSVIYSDGRRTFWGDSVKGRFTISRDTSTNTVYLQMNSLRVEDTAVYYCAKGRAAGTTDSWGQGTLVTVSS
ND / ND / ND	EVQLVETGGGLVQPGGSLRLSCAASGFTLNSYEISWVRQAPGKGPEWVSVIYSDGRRTFYGDSVKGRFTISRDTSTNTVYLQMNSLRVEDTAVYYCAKVRAAGTFDEWGQGTLVTVSS
2.72 / ND / ND	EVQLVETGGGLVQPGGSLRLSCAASGFTLNSSGISWVRQAPGKGPEWVSVIYSDGRRTAYGDSVKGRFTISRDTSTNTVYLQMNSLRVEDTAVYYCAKGRAAGTFDSWGQGTLVTVSS
ND / 3.99 / ND	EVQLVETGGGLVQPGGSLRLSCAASGFTLNSYGISWVRQAPGKGPEWVSVKYSDGRRTFYGDSVKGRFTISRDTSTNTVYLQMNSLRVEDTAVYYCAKGRAVPTFDSWGQGTLVTVSS
4.57 / 3.77 / 3.94	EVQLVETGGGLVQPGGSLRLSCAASDFTLNSYGISWVRQAPGKGPEWVSVIYSDGRRTFYGDSGKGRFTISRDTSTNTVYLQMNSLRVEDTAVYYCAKGRAAGTFDSWGQGTLVTVSS
1.41 / 1.71 / 1.73	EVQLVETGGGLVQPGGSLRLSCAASGFVLNSYGISWVRQAPGKGPEWVSVIYSDGRRTFYGDSVKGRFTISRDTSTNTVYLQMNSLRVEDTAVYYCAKGRAAGTFDVWGQGTLVTVSS
ND / ND / ND	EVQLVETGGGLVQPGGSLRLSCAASGFTLNSYGISWVRQAPGKGPEWVSVIYSDGRRTFYGISVKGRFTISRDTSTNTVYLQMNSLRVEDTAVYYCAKGRNAGTFSSWGQGTLVTVSS
ND / ND / 5.23	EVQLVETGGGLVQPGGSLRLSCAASGMTLNSYGCCWVRQAPGKGPEWVSVIYSDGRRTFYGDSVKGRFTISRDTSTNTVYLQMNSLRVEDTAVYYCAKGRAAGTFDSWGQGTLVTVSS
ND / ND / ND	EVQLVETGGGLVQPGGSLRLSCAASGFTLNSYGISWVRQAPGKGPEWVSVIYSDGRRTFYGDCVKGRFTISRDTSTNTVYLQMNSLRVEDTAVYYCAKGRAAGVFDSWGQGTLVTVSS
ND / ND / ND	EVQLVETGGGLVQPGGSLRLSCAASGFTLNSNLISWVRQAPGKGPEWVSVIYSDGRRTSYGDSVKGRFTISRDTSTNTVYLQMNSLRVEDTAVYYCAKGRAAGTFDSWGQGTLVTVSS
ND / ND / ND	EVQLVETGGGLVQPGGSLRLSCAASSFTLNSYGISWVRQAPGKGPEWVSVIYSDGRRTFYGDSVKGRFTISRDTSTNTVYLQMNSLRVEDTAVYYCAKGRAAGTCDSWGQGTLVTVSS
2.11 / 2.11 / 2.10	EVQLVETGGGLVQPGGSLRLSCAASGFPLNSYGISWVRQAPGKGPEWVSVIYSDGWRTFYGDSVKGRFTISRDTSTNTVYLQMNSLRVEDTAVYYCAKGRAAGTKDSWGQGTLVTVSS
ND / ND / 4.38	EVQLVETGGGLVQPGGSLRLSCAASGFTLFSYGIMWVRQAPGKGPEWVSVIYSDGRRVFYGDSVKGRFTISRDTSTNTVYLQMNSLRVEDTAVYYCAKGRAAGTFDSWGQGTLVTVSS
3.97 / 3.47 / ND	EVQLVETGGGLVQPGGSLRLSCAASGFTLNPYGISWVRQAPGKGPEWVSVIYSDGRRKFYGDSVKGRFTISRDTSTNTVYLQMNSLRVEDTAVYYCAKGRAAGTFDSWGQGTLVTVSS